The values below are quoted from earlier work in US20120202819A1, “COMBINATION THERAPY USING A BETA 3 […] RECEPTOR AGONISTS AND AN […] AGENT” (Merck Sharp & Dohme Corporation, priority 2009, published 2012).

Amino acid sequences for entries named in this document (tags omitted). A change or cut given only in a name is not applied to a line headed by its entry.
UniProt P11229: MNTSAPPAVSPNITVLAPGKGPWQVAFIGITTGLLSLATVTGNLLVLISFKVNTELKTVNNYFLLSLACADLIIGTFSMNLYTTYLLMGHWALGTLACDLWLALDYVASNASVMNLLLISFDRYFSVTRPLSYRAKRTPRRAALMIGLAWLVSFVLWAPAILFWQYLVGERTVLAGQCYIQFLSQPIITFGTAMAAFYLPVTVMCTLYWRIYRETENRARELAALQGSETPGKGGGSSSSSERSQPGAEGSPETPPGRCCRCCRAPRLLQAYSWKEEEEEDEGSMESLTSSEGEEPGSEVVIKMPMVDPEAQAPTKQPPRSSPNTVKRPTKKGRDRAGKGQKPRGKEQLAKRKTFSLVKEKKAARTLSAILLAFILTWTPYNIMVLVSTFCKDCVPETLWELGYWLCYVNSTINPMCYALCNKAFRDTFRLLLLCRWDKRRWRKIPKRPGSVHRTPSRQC

The series concerns the target muscarinic receptor M1 (Homo sapiens, UniProt P11229). As to conditions: read-out: Ki (nM) M1; Ohtake et al.; cited from earlier work.

As for `NC(=O)C(c1ccccc1)(c1ccccc1)[C@@H]1CCN(CCc2ccc3c(c2)CCO3)C1` [Darifenacin, (S)-2-[1-[2-(2,3-dihydrobenzofuran-5-yl)ethyl]pyrrolidin-3-yl]-2,2-diphenyl-acetamide], the Ki was 31 ± 2.6 nM.

Usually Ki stands for a dissociation constant, usually derived from enzyme kinetics or from competition with a known ligand.
